This passage reports Ratio IC50 results from ChEMBL document CHEMBL2169744, “Discovery and optimization of potent and selective imidazopyridine and imidazopyridazine mTOR inhibitors” (Bioorg Med Chem Lett, 2012).

Molecules are shown by their SMILES.

The nature of this test: Selectivity ratio of IC50 for PI3Kalpha to IC50 for mTOR.

For `Cc1nc(N)nc(-c2c(Nc3cc[nH]n3)nc3ccc(-c4ccncc4)cn23)n1`, the Ratio IC50 was 55. Then `CC(=O)Nc1cc(-c2c(Nc3ccn(C)n3)nc3ccc(-c4cnco4)cn23)nc(C)n1`, with 161. As for `Cc1cc(-c2ccc3nc(Nc4cc[nH]n4)c(-c4nc(C)nc(N)n4)n3c2)on1`, the Ratio IC50 is 71. Then `CC(=O)Nc1cccc(-c2ccc3nc(Nc4cc[nH]n4)c(-c4nc(C)nc(N)n4)n3c2)c1`, with 9; and `CC(=O)Nc1cc(-c2c(Nc3cc[nH]n3)nc3cccnn23)nc(C)n1`, with 13.

As to `Cc1nc(N)nc(-c2c(Nc3cc[nH]n3)nc3ccc(-c4cccnc4C)cn23)n1`, the Ratio IC50 amounted to 48. `Cc1nc(N)nc(-c2c(Nc3cc[nH]n3)nc3ccc(-c4cncnc4)cn23)n1`: the Ratio IC50 was 37. With `Cc1cc(-c2ccc3nc(Nc4cc[nH]n4)c(-c4nc(C)nc(N)n4)n3c2)ccn1`, the Ratio IC50 stood at 64.

For the compound `Cc1nc(N)nc(-c2c(Nc3ccn(C)n3)nc3ccc(-c4cncnc4)cn23)n1`, the Ratio IC50 was 8. For `COc1ncccc1-c1ccc2nc(Nc3cc[nH]n3)c(-c3nc(C)nc(N)n3)n2c1`, the Ratio IC50 turned out to be 7.

As for `Cc1nc(N)nc(-c2c(Nc3cc[nH]n3)nc3ccc(-c4ccccc4C)cn23)n1`, the Ratio IC50 turned out to be 19.

In the case of `Cc1nc(Nc2cccnc2)cc(-c2c(Nc3cc[nH]n3)nc3cccnn23)n1`, the Ratio IC50 was 8. Consider `CC(=O)Nc1cc(-c2c(Nc3ccn(C)n3)nc3ccccn23)nc(C)n1`, for which the Ratio IC50 came out at 68.

In the case of `Cc1nccc(-c2c(Nc3cc[nH]n3)nc3cccnn23)n1`, the Ratio IC50 stood at 21.

As to `CC(=O)Nc1cc(-c2c(Nc3ccn(C)n3)nc3cccnn23)nc(C)n1`, the Ratio IC50 turned out to be 30. `Cc1nc(N)nc(-c2c(Nc3cc[nH]n3)nc3ccc(-c4cnccc4C)cn23)n1`: the Ratio IC50 stood at 47. For `CC(=O)Nc1cc(-c2c(Nc3cc[nH]n3)nc3ccccn23)nc(C)n1`, the Ratio IC50 was found to be 12.

Consider `CNc1cc(-c2c(Nc3cc[nH]n3)nc3cccnn23)nc(C)n1`, for which the Ratio IC50 was found to be 18. For the compound `Cc1nc(Nc2cnccn2)cc(-c2c(Nc3cc[nH]n3)nc3cccnn23)n1`, the Ratio IC50 was 21.
